scFv variants of Ab-14 (heavy chain) against a SARS-CoV-2 spike peptide

Antigen: PDVDLGDISGINAS, a 14-residue peptide of the SARS-CoV-2 spike HR2 region.

Parent scFv Ab-14: VH joined to VL by a (GGGGS)3 linker. Changes lie in the heavy chain CDRs alone.
VH: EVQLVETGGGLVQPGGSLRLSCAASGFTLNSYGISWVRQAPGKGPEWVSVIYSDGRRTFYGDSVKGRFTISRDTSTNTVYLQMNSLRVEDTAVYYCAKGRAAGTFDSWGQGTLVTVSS
VL: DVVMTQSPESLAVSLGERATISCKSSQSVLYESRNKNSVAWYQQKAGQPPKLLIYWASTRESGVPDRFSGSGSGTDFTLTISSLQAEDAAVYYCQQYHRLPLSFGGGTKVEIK

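Designed CDR sequences, proposed from the first random library and measured here. Group labels follow the data file (Ctrl: baseline library sampled from a position-specific scoring matrix, with some repeated check sequences; GPLM: also part of the Gaussian process libraries; HC: hill climbing; Gen: genetic algorithm; a sequence that several methods proposed may carry one label only). In AlphaSeq, yeast of one mating type display the scFv and yeast of the other type display the target. After mating in shaken culture at 30 °C for 16 h, diploids were selected and their barcode pairs sequenced. The ratio of observed to expected reads was calibrated, replicate by replicate, on BCL2-family standards whose Kd was known from biolayer interferometry. Mating was done six times.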

Substitutions are numbered in sequence along the VH above, starting at 1 (not Kabat).
The read-out is the apparent dissociation constant on a log10 scale (nM): the lower, the stronger.
Averages over replicates are reported, and they cover detected replicates only.
A pair that was not seen in that replicate is written "ND"; this usually means weak binding, but a binder can also be missed.
The authors' rule: three or more of the six replicates give a measured affinity, fewer mean a poor binder.
A sequence measured in both rounds can read differently, since the two assays cover different ranges.
Where one sequence has several entries in the source, the replicates are listed entry by entry, parted by semicolons.
As a blank, each scFv also met three strains without target: over all heavy chain designs, 1% of these pairings were detected, typically at 2.08 and seldom below 0.84. The control count says in how many pairings with the empty strains this scFv gave a signal, with their mean in brackets.
Of ten entries with the parent sequence, four were seen in most replicates (averages 0.34 to 2.37), three in one and three in none, so single entries are noisy.

| changes | group | replicates, log10 nM | mean, log10 nM | empty controls |
|---|---|---|---|---|
| L29R R100D | Ctrl | ND ND 2.82 0.99 ND ND | 1.90 | 0/18 |
| F27D D106P | Ctrl | 1.74 1.81 1.71 1.57 ND 3.54 | 2.07 | 1/18 (2.24) |
| N30K S31E I51M F59A G61K | Ctrl | 0.78 1.19 2.75 1.75 1.04 1.07 | 1.43 | 0/18 |
| R100V A101I | Ctrl | 0.24 0.54 0.78 2.63 1.43 1.18 | 1.13 | 0/18 |
| T28D G99N R100Y | Ctrl | ND ND ND ND ND ND | ND | 0/18 |
| G26L A102G | Ctrl | ND ND ND ND ND ND | ND | 0/18 |
| T28N N30D S31L R56E | Ctrl | 1.13 0.67 0.97 1.06 1.09 0.78 | 0.95 | 0/18 |
| R100G T104W D106T | Ctrl | ND ND ND ND ND ND | ND | 0/18 |
| S31N G61A R100E A101N S107W | Ctrl | 0.94 1.04 1.64 1.62 1.29 1.35 | 1.31 | 0/18 |
| N30Q G61H S107Q | Ctrl | 0.38 ND ND ND ND 0.99 | 0.68 | 1/18 (0.18) |
| S31E F59W | Ctrl+GPLM_HC | 0.25 -0.31 0.19 -0.57 0.36 ND; 0.49 0.28 0.22 0.22 ND ND | 0.13 | 0/36 |
| S31E S53A R100M T104K | Ctrl | ND ND ND ND ND ND | ND | 1/18 (1.68) |
| F27E N30Q R56M A101I T104D S107D | Ctrl | ND ND ND ND ND ND | ND | 0/18 |
| N30D S31Q G61V D106P | Ctrl | ND ND ND ND ND ND | ND | 0/18 |
| G26E A101V | Ctrl | ND 1.37 1.56 0.19 0.50 1.21 | 0.97 | 0/18 |
| T28H S31D S53A R100Y F105S S107L | Ctrl | ND ND ND ND ND ND | ND | 0/18 |
| Y32E S53R G61A G103K | Ctrl | ND ND ND ND ND ND | ND | 0/18 |
| T28K N30F Y60I G61H D106N | Ctrl | ND ND ND ND ND ND | ND | 0/18 |
| F27Y A101E | Ctrl | 2.01 1.17 2.09 ND ND 2.13 | 1.85 | 0/18 |
| G26R S31E D106F | Ctrl | ND ND ND ND ND ND | ND | 0/18 |
| N30M G61Q | Ctrl | ND 0.21 ND ND 1.42 ND | 0.82 | 0/18 |
| R100T A101I | Ctrl | 0.44 0.54 0.34 0.14 0.19 0.67 | 0.39 | 0/18 |
| G61S R100W | Ctrl+GPLM_Gen | ND ND ND ND ND ND; 0.87 2.48 1.14 1.21 0.95 2.42 | 1.51 | 0/36 |
| T28K N30Q | Ctrl | ND 1.48 2.14 ND ND 1.84 | 1.82 | 0/18 |
| T28D R100T A101H T104Q | Ctrl | ND ND ND ND ND ND | ND | 0/18 |
| R56Y G61S D106V | Ctrl | ND ND ND ND ND ND | ND | 0/18 |
| G55Y R56E | Ctrl | ND ND ND ND ND ND | ND | 0/18 |
| T28G G61R D106E S107V | Ctrl | ND ND ND ND ND ND | ND | 1/18 (1.85) |
| D62G A101H D106W | Ctrl | ND ND ND ND ND ND | ND | 0/18 |
| R56I A101E F105D | Ctrl | ND ND ND ND ND 3.75; ND ND ND ND ND ND; ND ND ND ND ND ND | 3.75 | 1/54 (1.33) |
| G61S R100K A102S F105S | Ctrl | ND ND ND ND ND ND | ND | 0/18 |
| T28V R100T | Ctrl | 1.62 2.10 1.94 2.63 2.35 1.96 | 2.10 | 1/18 (2.45) |
| S53A T58N F105S | Ctrl | ND ND ND ND ND ND | ND | 0/18 |
| S31D T104R | Ctrl | ND ND ND 1.59 ND ND | 1.59 | 0/18 |
| N30E S31D F59S F105K | Ctrl | ND ND ND ND ND ND | ND | 0/18 |
| L29I G61S G99E | Ctrl | ND ND ND ND ND ND | ND | 0/18 |
| S53A R100E A101F G103V | Ctrl | ND ND ND ND ND ND | ND | 0/18 |

The 3 strongest on average among those seen in every replicate, once more:

changes	group	replicates, log10 nM	mean, log10 nM	empty controls
R100T A101I	Ctrl	0.44 0.54 0.34 0.14 0.19 0.67	0.39	0/18
T28N N30D S31L R56E	Ctrl	1.13 0.67 0.97 1.06 1.09 0.78	0.95	0/18
R100V A101I	Ctrl	0.24 0.54 0.78 2.63 1.43 1.18	1.13	0/18

Data: MIT Lincoln Laboratory AlphaSeq set, Li et al. 2023, doi:10.1038/s41467-023-39022-2, as distributed in FLAb.